Experimental data reported in patent US20120115785A1 (MEDICAL COLLEGE OF GEORGIA RESEARCH INSTITUTE, published 2012).

Legend:
Human β-actin [1] = molecular target: T1, Human β-actin (human, UniProt P60709 2-375); experiment: F-actin binding spin-down assay, 10 µM peptide, 23 µM F-actin, SDS-PAGE, Coomassie Blue
Human β-actin [2] = molecular target: T1, Human β-actin; experiment: purified G-actin and purified recombinant eNOS, immunoprecipitation with eNOS monoclonal antibody on protein G-agarose, Western blot
Human β-actin [3] = molecular target: T1, Human β-actin; experiment: F-actin binding spin-down assay, SDS-PAGE, Coomassie Blue

LGLRWYAL (also called P326) [ABS peptide 326]
binding result (Human β-actin [1]): binds

AGARAYAA [control peptide for ABS peptide 326]
binding result (Human β-actin [1]): binds

B1: purified recombinant eNOS protein (human eNOSpCW) (enzyme)
chain: GNLKSVAQEPGPPCGLGLGLGLGLCGKQGPATPAPEPSRAPASLLPPAPEHSPPSSPLTQPPEGPKFPRVKNWEVGSITYDTLSAQAQQDGPCTPRRCLGSLVFPRKLQGRPSPGPPAPEQLLSQARDFINQYYSSIKRSGSQAHEQRLQEVEAEVAATGTYQLRESELVFGAKQAWRNAPRCVGRIQWGKLQVFDARDCRSAQEMFTYICNHIKYATNRGNLRSAITVFPQRCPGRGDFRIWNSQLVRYAGYRQQDGSVRGDPANVEITELCIQHGWTPGNGRFDVLPLLLQAPDDPPELFLLPPELVLEVPLEHPTLEWFAALGLRWYALPAVSNMLLEIGGLEFPAAPFSGWYMSTEIGTRNLCDPHRYNILEDVAVCMDLDTRTTSSLWKDKAAVEINVAVLHSYQLAKVTIVDHHAATASFMKHLENEQKARGGCPADWAWIVPPISGSLTPVFHQEMVNYFLSPAFRYQPDPWKGSAAKGTGITRKKTFKEVANAVKISASLMGTVMAKRVKATILYGSETGRAQSYAQQLGRLFRKAFDPRVLCMDEYDVVSLEHETLVLVVTSTFGNGDPPENGESFAAALMEMSGPYNSSPRPEQHKSYKIRFNSISCSDPLVSSWRRKRKESSNTDSAGALGTLRFCVFGLGSRAYPHFCAFARAVDTRLEELGGERLLQLGQGDELCGQEEAFRGWAQAAFQAACETFCVGEDAKAAARDIFSPKRSWKRQRYRLSAQAEGLQLLPGLIHVHRRKMFQATIRSVENLQSSKSTRATILVRLDTGGQEGLQYQPGDHIGVCPPNRPGLVEALLSRVEDPPAPTEPVAVEQLEKGSPGGPPPGWVRDPRLPPCTLRQALTFFLDITSPPSPQLLRLLSTLAEEPREQQELEALSQDPRRYEEWKWFRCPTLLEVLEQFPSVALPAPLLLTQLPLLQPRYYSVSSAPSTHPGEIHLTVAVLAYRTQDGLGPLHYGVCSTWLSQLKPGDPVPCFIRGAPSFRLPPDPSLPCILVGPGTGIAPFRGFWQERLHDIESKGLQPTPMTLVFGCRCSQLDHLYRDEVQNAQQRGVFGRVLTAFSREPDNPKTYVQDILRTELAAEVHRVLCLERGHMFVCGDVTMATNVLQTVQRILATEGDMELDEAGDVIGVLRDQQRYHEDIFGLTLRTQEVTSRIRTQSFSLQERQLRGAVPWAFDPPGSDTNSP
notes: also called purified eNOS
binding result (Human β-actin [2]): binds

RKKTFKEVANA (also called P492) [ABS peptide 492]
binding result (Human β-actin [3]): no binding (tested: 10 µM peptide, 23 µM F-actin)
